{"source": "patent US20040122104A1", "about": "(Collegium Pharmaceutical, Inc., priority 2002, published 2004)", "origin": "cited, not measured here", "conditions": "100 mg/day twice daily", "data": [{"smiles": "CCN(CC)C(=O)C1(c2ccccc2)CC1CN", "note": "(stereo not shown) [milnacipran, Milnacipran]", "values": [{"measurement": "spontaneously reported adverse events: constipation", "result": 10, "unit": "%"}]}]}
